Drawing on ChEMBL document CHEMBL1134281, “Monosaccharide-linked inhibitors of O(6)-methylguanine-DNA methyltransferase (MGMT): synthesis, molecular modeling, and structure-activity relationships” (J Med Chem, 2001), this text covers IC50 for 1 molecule.

The test has as its target T1, Methylated-DNA--protein-cysteine methyltransferase (Homo sapiens, UniProt P16455).
T1 sequence (P16455 whole entry): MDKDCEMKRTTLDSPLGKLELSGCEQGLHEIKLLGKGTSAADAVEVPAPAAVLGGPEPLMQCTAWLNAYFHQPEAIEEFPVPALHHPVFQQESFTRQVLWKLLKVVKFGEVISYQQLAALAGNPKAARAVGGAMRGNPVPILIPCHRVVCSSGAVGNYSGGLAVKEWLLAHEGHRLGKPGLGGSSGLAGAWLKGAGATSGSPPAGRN
Kind of test: In vitro inhibition of MGMT using cell free extracts from HeLa S3 cells.

Structures are written as SMILES.

What is called IC50 is the concentration needed to halve the response being measured. Read a low IC50 as greater potency. On to `Nc1nc(OCc2ccccc2)c2[nH]cnc2n1` [6-O-BENZYLGUANINE], for which the IC50 worked out at 620 nM.
